PMC5271370, “A High-Content Assay Enables the Automated Screening and Identification of Small Molecules with Specific ALDH1A1-Inhibitory Activity” (PLoS ONE, 2017)

Chains of the proteins cited; added tags and fusions are not shown. Residues count along the entry.
UniProt P05091, 18-517 limits assumed: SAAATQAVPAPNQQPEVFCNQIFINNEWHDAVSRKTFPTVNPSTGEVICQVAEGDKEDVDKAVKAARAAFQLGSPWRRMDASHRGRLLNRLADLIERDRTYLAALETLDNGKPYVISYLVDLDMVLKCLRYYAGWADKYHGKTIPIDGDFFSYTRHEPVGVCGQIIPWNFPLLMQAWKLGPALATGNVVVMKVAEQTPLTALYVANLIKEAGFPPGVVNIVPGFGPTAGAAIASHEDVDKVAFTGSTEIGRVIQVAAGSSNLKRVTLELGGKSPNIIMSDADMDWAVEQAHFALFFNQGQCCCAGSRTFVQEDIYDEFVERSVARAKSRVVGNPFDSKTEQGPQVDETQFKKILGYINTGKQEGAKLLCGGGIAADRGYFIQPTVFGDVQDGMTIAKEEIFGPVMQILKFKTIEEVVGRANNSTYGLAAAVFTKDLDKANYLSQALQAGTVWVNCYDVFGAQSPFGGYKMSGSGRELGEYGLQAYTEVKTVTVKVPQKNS

Experiments:
LN-229 cells = assay: 1,536-well high-content imaging ALDEFLUOR assay, LN-229; settings: fully automated assay, Fig 5
ALDH1A2 = settings: read-out: Reported Biochemical IC50, ALDH1A2; reported ALDH target 1A2; cited from earlier work
ALDH1A1 = settings: read-out: Reported Biochemical IC50, ALDH1A1; reported ALDH target 1A1; cited from earlier work
ALDH1A3 = settings: read-out: Reported Biochemical IC50, ALDH1A3; reported ALDH target 1A3; cited from earlier work
Human ALDH2 = Human ALDH2 (Homo sapiens, UniProt P05091); assay: 1,536-well enzymatic assay (NADH fluorescence), ALDH2; settings: read-out: Biochemical IC50 ALDH2; validation set; 75 nM enzyme, NAD+ and propionaldehyde
ALDH2 = settings: read-out: Reported Biochemical IC50, ALDH2; reported ALDH target 2; cited from earlier work

| IC50 (Human ALDH2) [µM] | SMILES | Inhibition of BAAA turnover in LN-229 (ALDH1A1-negative cells) (LN-229 cells) | IC50 (ALDH1A2) [µM] | IC50 (ALDH1A1) [µM] | IC50 (ALDH1A3) [µM] | IC50 (ALDH2) [µM] |
| --- | --- | --- | --- | --- | --- | --- |
|  | CCC(SC1=Nc2ccccc2C2=NC(C(C)CC)C(=O)N12)C(=O)Nc1ccccc1C (stereo not shown) | inhibited BAAA turnover only in ALDH1A1-expressing cells |  |  |  |  |
| 36.4 | Cc1cc(N2Cc3ccccc3C2)ccc1C=O |  | 0.21 | 0.22 | 0.17 |  |
| 2.54 | O=Cc1ccc(N2Cc3ccccc3C2)cc1 |  | 0.8 | 0.45 | 1.3 | 1.7 |
